Binding of CDR-mutated scFvs to a peptide of the spike HR2 region

Data: MIT Lincoln Laboratory AlphaSeq set, Engelhart et al. 2022, doi:10.1038/s41597-022-01779-4, as distributed in FLAb.

Binding partner: SARS-CoV-2 spike HR2 peptide, sequence PDVDLGDISGINAS.

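In library AAYL49, one, two or three CDR residues were substituted; doubles and triples were drawn at random. Affinity was read by AlphaSeq, a pooled yeast mating assay with surface-displayed partners. The frequency of each diploid, read from paired DNA barcodes, reflects how well the two displayed proteins bind. Read counts were normalised to the haploid input and turned into Kd by a linear fit to BCL2-family pairs of known affinity, for each replicate. There are three technical replicates.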

The variants keep the light chain, the linker and the frameworks of Ab-14 (scFv order VH, a 15-residue (Gly4Ser)3 linker, VL).
VH: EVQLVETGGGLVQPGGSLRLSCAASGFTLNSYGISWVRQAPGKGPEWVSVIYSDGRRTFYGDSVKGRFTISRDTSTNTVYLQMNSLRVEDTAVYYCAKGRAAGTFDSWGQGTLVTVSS
VL: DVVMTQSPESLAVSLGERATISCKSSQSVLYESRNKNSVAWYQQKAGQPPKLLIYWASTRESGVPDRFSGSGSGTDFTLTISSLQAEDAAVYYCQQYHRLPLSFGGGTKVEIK

Variants are written as CDR1, CDR2 and CDR3 of the heavy chain (limits as in the source). Parent: GFTLNSYGIS, VIYSDGRRTFYGDSVK, GRAAGTFDS.
Numbers give log10(Kd / nM), so 0 is 1 nM and 3 is 1 µM. Smaller is tighter.
The mean shown is taken over the replicates in which the pair was detected.
A pair that was not seen in that replicate is written "ND"; this usually means weak binding, but a binder can also be missed.

| # | CDR-H1 | CDR-H2 | CDR-H3 | log10 Kd (nM) by replicate | mean log10 Kd (nM) | empty controls |
|---|---|---|---|---|---|---|
| 1 | GFTLNSYGIS | VIYSDGRRTFYGDSVK | GRAGGTSDS | 5.81 ND 3.16 | 4.48 | 4 of 9 (4.44) |
| 2 | GFTLNSYGIS | VKYSDGRRTFYGDSVK | GRAAVTQDS | ND ND 4.03 | 4.03 | 1 of 9 (2.76) |
| 3 | GFTLNSVGIS | VIYSDGRGTFYGDSVK | GRAAGEFDS | ND ND ND | ND | 2 of 9 (4.03) |
| 4 | GFTLNSYGIS | VIYSDGRRTFYGDSVK | GHTQGTFDS | ND ND 5.98 | 5.98 | 4 of 9 (4.00) |
| 5 | GFTLNSYGIS | VRYSDGRRTFYGDSVK | GRAAGTFVS | ND ND ND | ND | 1 of 9 (4.38) |
| 6 | GFTLMSYGIS | VIYSDGRRTFTGDSVK | GRAAGTFDS | 3.31 3.57 3.26 | 3.38 | 1 of 9 (3.63) |
| 7 | GFHLNSYGIS | VIYSDHRRTFYGDSVK | KRAAGTFDS | ND ND ND | ND | 1 of 9 (2.75) |
| 8 | GFTLNSYFIS | VIYSDGRRTFYGDSVK | GRDIGTFDS | ND ND ND | ND | 3 of 9 (2.93) |
| 9 | GFTLNSYGIS | VIYSDGRRTFYGDIVK | MMAAGTFDS | 3.77 3.71 4.78 | 4.09 | 1 of 9 (3.03) |
| 10 | FFTLNSYGIS | VIYSNGRCTFYGDSVK | GRAAGTFDS | ND 4.72 ND | 4.72 | 0 of 9 |
| 11 | GFTLSSYGIS | VIYSDGRRTFHGDSVK | GRAHGTFDS | ND ND 3.67 | 3.67 | 1 of 9 (3.92) |
| 12 | SFCLNSYGIS | VIYSDGRRTFYGTSVK | GRAAGTFDS | ND ND ND | ND | 2 of 9 (3.79) |
| 13 | GFTDNSYGIS | VIYSLGRRTFYQDSVK | GRAAGTFDS | 4.37 ND 3.88 | 4.12 | 4 of 9 (4.24) |
| 14 | GFTYNSYGIS | VIYSDGRRTFTGDSVK | GRAAGTFDS | ND ND ND | ND | 0 of 9 |
| 15 | GFTLNSYGIS | VIYSDGRRTAYGDSSK | GVAAGTFDS | 1.55 1.68 1.37 | 1.53 | 2 of 9 (3.00) |
| 16 | GFTLNSYGIS | VIYPRGRRTFYGGSVK | GRAAGTFDS | ND ND ND | ND | 1 of 9 (4.69) |
| 17 | GFTLNSYGIS | VIYSEGRRTFYGMSVK | GRAAGTFDS | ND ND ND | ND | 0 of 9 |
| 18 | GFTLNSYGIS | VIYQDGRRTFYGDKVK | GRAAGTFDS | ND ND ND | ND | 0 of 9 |
| 19 | GFTLNSYGIS | VIYSDGLRTFYGDSVK | GRAQGTFDS | ND ND ND | ND | 0 of 9 |
| 20 | GFTLMSYRIS | VISSDGRRTFYGDSVK | GRAAGTFDS | ND 4.86 ND | 4.86 | 4 of 9 (3.80) |
| 21 | GFTLWSYGIV | VIYSDGRRTFYGDSVK | GRAAGTFDS | ND ND ND | ND | 0 of 9 |
| 22 | GFTLNSDGIS | VIYSWGRRTFYGDSVK | GRAAGTFHS | ND ND ND | ND | 0 of 9 |
| 23 | GFTLNSYGIS | VIYSDGRRIFIGDSSK | GRAAGTFDS | 3.60 4.50 ND | 4.05 | 3 of 9 (4.00) |
| 24 | GFTLNSYGGS | VIYSDGRRTFYGDSVK | GRASGTQDS | ND 3.04 3.61 | 3.33 | 0 of 9 |
| 25 | GFTYNSVGIS | VIYSDGRRTFYGDSVK | GDAAGTFDS | 0.52 0.83 0.85 | 0.73 | 2 of 9 (3.97) |
| 26 | GFTLNSYGKS | VHYSDGRRTFYGDSVK | GRAAGTFDN | ND ND ND | ND | 0 of 9 |
| 27 | GFTLNSYGSS | VTESDGRRTFYGDSVK | GRAAGTFDS | ND ND ND | ND | 2 of 9 (3.37) |
| 28 | GFTLNSTGIS | VIYSDGCRTWYGDSVK | GRAAGTFDS | ND ND ND | ND | 0 of 9 |
| 29 | GFTLSSYGIT | VIYDDGRRTFYGDSVK | GRAAGTFDS | ND ND ND | ND | 3 of 9 (3.79) |
| 30 | GFTLNSYGIE | VIYSDGRRTFYQDSKK | GRAAGTFDS | ND 3.78 ND | 3.78 | 1 of 9 (3.43) |
| 31 | GFTLNSYGIS | VIYYDGRRTFYDDSVK | GRAAGTFDF | ND ND ND | ND | 0 of 9 |
| 32 | GFTLNSYCIS | VIYSDYRRTFYGDSVK | GRAAGTFDS | 3.82 ND ND | 3.82 | 1 of 9 (3.43) |
| 33 | GFTLNSYGIS | VIYSDGRRTFNGDSYK | GRAAGTFDS | ND ND ND | ND | 1 of 9 (3.18) |
| 34 | GFTLNSYGIS | VIRSDGRRTFVGDSVK | GRAAKTFDS | ND ND ND | ND | 2 of 9 (3.28) |
| 35 | GFTLNSYGIS | KIYSDGRRTFYGDSVK | VRANGTFDS | ND ND ND | ND | 1 of 9 (3.83) |
| 36 | GFRLNSYGIS | VIYSDGRRDFYGDSVK | GEAAGTFDS | 1.96 1.74 1.87 | 1.86 | 1 of 9 (4.50) |
| 37 | MFTLNSYGIS | VIYSDGRRTFYQDSHK | GRAAGTFDS | ND ND 4.65 | 4.65 | 0 of 9 |
| 38 | GFTLNSYFNS | VIYMDGRRTFYGDSVK | GRAAGTFDS | ND 5.02 ND | 5.02 | 1 of 9 (4.86) |
| 39 | GFTLNSYGIS | PIYFDNRRTFYGDSVK | GRAAGTFDS | ND ND ND | ND | 0 of 9 |
| 40 | GFTLNSYGIS | VIYSDERRTFYGDSVS | GRAAGRFDS | ND ND ND | ND | 0 of 9 |
| 41 | GFDLNSYGIS | KIYSDGRRTFYGDPVK | GRAAGTFDS | 4.16 ND ND | 4.16 | 2 of 9 (4.19) |
| 42 | GFTLNSYGIS | VITFDGGRTFYGDSVK | GRAAGTFDS | 2.77 2.11 3.60 | 2.82 | 0 of 9 |
| 43 | GFTLNSYGIS | VIYSDWRRTFYGISLK | GRAAGTFDS | 5.87 3.61 ND | 4.74 | 6 of 9 (4.05) |
| 44 | GFTLNSYGIS | VIYSHGRRTFYGDSVK | GHAAGTFGS | ND ND 3.55 | 3.55 | 0 of 9 |

For reference, 6 entries of the list once more:

{"CDR-H1": "GFTLNSYGIS", "CDR-H2": "VIYSDWRRTFYGISLK", "CDR-H3": "GRAAGTFDS", "log10 Kd (nM) by replicate": "5.87 3.61 ND", "mean log10 Kd (nM)": "4.74", "empty controls": "6 of 9 (4.05)"}
{"CDR-H1": "GFTLNSYCIS", "CDR-H2": "VIYSDYRRTFYGDSVK", "CDR-H3": "GRAAGTFDS", "log10 Kd (nM) by replicate": "3.82 ND ND", "mean log10 Kd (nM)": "3.82", "empty controls": "1 of 9 (3.43)"}
{"CDR-H1": "FFTLNSYGIS", "CDR-H2": "VIYSNGRCTFYGDSVK", "CDR-H3": "GRAAGTFDS", "log10 Kd (nM) by replicate": "ND 4.72 ND", "mean log10 Kd (nM)": "4.72", "empty controls": "0 of 9"}
{"CDR-H1": "GFTLNSYGIS", "CDR-H2": "VIYSDGRRTFNGDSYK", "CDR-H3": "GRAAGTFDS", "log10 Kd (nM) by replicate": "ND ND ND", "mean log10 Kd (nM)": "ND", "empty controls": "1 of 9 (3.18)"}
{"CDR-H1": "GFDLNSYGIS", "CDR-H2": "KIYSDGRRTFYGDPVK", "CDR-H3": "GRAAGTFDS", "log10 Kd (nM) by replicate": "4.16 ND ND", "mean log10 Kd (nM)": "4.16", "empty controls": "2 of 9 (4.19)"}
{"CDR-H1": "GFTLNSYGIE", "CDR-H2": "VIYSDGRRTFYQDSKK", "CDR-H3": "GRAAGTFDS", "log10 Kd (nM) by replicate": "ND 3.78 ND", "mean log10 Kd (nM)": "3.78", "empty controls": "1 of 9 (3.43)"}

Empty control strains, which show no peptide, gave a signal in 15% of pairings with library AAYL49; the median was 4.06 and 95% of these signals were weaker than 2.83. No background was subtracted. For each scFv, signals with the empty controls are counted beside the result, with their mean in brackets.